Earlier results, collected in publication PMC4747437.

Sequences of proteins named here, by UniProt entry; tags and fusion partners are left off. Residues count along the entry.
UniProt Q9UKL0, 293-380: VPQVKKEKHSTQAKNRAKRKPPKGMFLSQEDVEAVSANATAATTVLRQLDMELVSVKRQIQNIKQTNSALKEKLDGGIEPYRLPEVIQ

Target: CoREST 293-380 (Homo sapiens) (UniProt Q9UKL0)

Q: For KDM1A (from UniProt O60341), which Kd is on record?
A: 7.78 nM
